Experiment in all cases: purified protein, by the assay type
Series [1] deals with O=C1c2c(O)cc(O)cc2O[C@H](c2ccc(O)cc2)[C@H]1O. The note with it: other: NADPH 2 mM, pH 7.0, 25 °C, 25.0 °C.
The test system of the next series is NADH. The note with it: other: cofactor varied 5 to 500 µM, DHQ constant at 1 mM; pH 7.0.
Another series relates to NADPH. The conditions noted are these: other: cofactor varied 5 to 500 µM, DHQ constant at 1 mM; pH 7.0.

Turning to PvDFRa WT (Panicum virgatum), the figures for the Km (in series [1]; in the series with NADH; with NADPH) were 191.2 ± 31.4 µM, 190.6 µM⁻¹ and 115.4 µM⁻¹, respectively. In addition, the kcat in the series on NADH was determined as 0.05158 s⁻¹; in the series on NADPH it was 0.0651 s⁻¹.

Values taken from publication PMC10531346, “Structural Similarities and Overlapping Activities among Dihydroflavonol 4-Reductase, Flavanone 4-Reductase, and Anthocyanidin Reductase Offer Metabolic Flexibility in the Flavonoid Pathway” (International Journal of Molecular Sciences, 2023).
